{"source": "patent US12398153B2", "about": "“Spiro compound serving as ERK inhibitor, and application thereof” (D3 BIO (WUXI) CO., LTD., priority 2019, dated 2025)", "test_system": "HT29 tumor cells", "assay": "In vitro cell proliferation inhibition assay (CellTiterGlo)", "conditions": "read-out: HT29 IC50", "procedure": "Assay Example 2. In Vitro Cell Proliferation Inhibition Assay\nThe ability of compounds to inhibit the proliferation of HT29 tumor cells was measured.\nThe assay compound was dissolved in 100% DMSO to prepare 10 mM stock solution.\n• 1) UV light of a biological safety cabin was turned on, and 30 minutes were counted down; • 2) In a 37° C. water bath, RPMI1640 medium and trypsin were preheated; • 3) After completion of the UV irradiation, the biological safety cabin was opened. […] The culture vessel was shaken horizontally so that the trypsin evenly covered the cells at the bottom, and placed in an incubator for 2 minutes; • 6) Cell digestion was stopped with complete medium, and the cell suspension was pipetted to homogeneity and counted; • 7) According to the result of cell counting, the density of cell suspension was adjusted to 1500 cells per well, and the cell suspension was seeded at 50 μl per well; • 8) The stock solution of compounds was serially diluted in DMSO solution, and compounds were added to cell plate using Tecan;\n9) The compound-added cell plate and CellTiterGlo were equilibrated at room temperature, and 25 microliters of CellTiterGlo was then added to each well. […] The signal value was then detected. The data were analyzed using XL-Fit, and the IC50 of each compound was calculated.", "note": "pIC50: −log10 of the molar value."}
{"smiles": "Cn1nccc1Nc1nccc(-c2nc3c(s2)C2(CCOC2)N(Cc2cccc(Cl)c2)C3=O)n1", "note": "(single isomer, unassigned)", "values": [{"measurement": "pIC50", "result": 7.59}]}
